# High-throughput results deposited in PubChem by National Center for Advancing Translational Sciences (NCATS).
# RXFP1 agonist – activates the human relaxin receptor RXFP1. Q9HBX9. HEK293T-RXFP1 cAMP TR-FRET, 30 min; response scale: percent of porcine relaxin response, buffer zero. Potency, µM (series often up to 57.5 µM), without a hit: at the highest dose activation, usual class: activators. 370,000 compounds, 0.3% hits; also: potency is read from the fitted curve at half-maximal effect; % is scaled to controls: 0 for no effect and ±100 for the full control effect; nearly all actives have a fitted effect of over 60% in size
#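 HEK293T cells stably expressing RXFP1 were pretreated with the PDE4 inhibitor Ro 20174, exposed to compounds for 30 min at 37C, lysed, and cAMP was read by TR-FRET. Data normalized to buffer (basal) and 29 nM porcine relaxin (100%).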
# S-ASM inh – inhibitors of human secretory acid sphingomyelinase; 340,000 compounds, 0.006% hits; P17405; placental ASM, HMU-PC fluorogenic substrate, 60 min; Potency, µM (top dose mostly 57.5 µM), without a hit: top-dose activity change, negative = inhibition, actives largely listed as inhibitors; AID 504937; also: potency is read from the fitted curve at half-maximal effect
#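 qHTS format. ASM enzyme prepared from human placenta hydrolyses the fluorogenic substrate HMU-PC0 (9 uM final) over 60 min at 37 °C after a 10 min compound preincubation.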
# miR-21 reporter – raises the signal of a miR-21 reporter; HeLa miR-21 FLuc reporter, luciferase, 48 h; Potency, µM (highest dose often 38.3 µM), inactives show at the highest dose reporter change, positive = more light; 340,000 tested, under 10 active; active = well fitted rising curve with a large enough effect; inconclusive = small, poorly fitted or top-dose-only effect; inactive = no such curve, though single readings can be large or run the other way;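 note: % of control where 0% means no effect; miR-21 action dims this reporter so a rising signal means less miR-21 action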
#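 Compounds were titrated across several concentrations (up to approximately 40 uM) and incubated 48 hours with HeLa miR-21-FLuc reporter cells (miR-21 target sequence downstream of FLuc, endogenous miR-21). Readout was firefly luciferase luminescence after lytic detection reagent.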
# ERG-DNA inh – ERG Ets/DNA interaction inhibition | fluorescence polarization, His-ERG Ets domain / labelled DNA | Potency, µM (top dose mostly 76.9 µM), without a hit: top-dose FP activity, negative = inhibition, usual class: inhibitors | AID 624246 | 370,000 compounds, 0.028% hits | P11308; active = well fitted inhibition curve with a large enough effect in the polarisation, with a control signal flat; inconclusive = small, poorly fitted or top-dose-only effect, or effect the other way, or a change in a side signal; inactive = no such curve, though single readings can be large or run the other way; the % refers to the polarisation;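 also: polarization taken with two DNA probes labelled with fluorescein and Texas red; potency is read from the fitted curve at half-maximal effect; % of control where 0% means no effect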
#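 His-tagged ERG Ets domain (1 uM in the protein solution; 300mM KCl, 50mM Tris-HCl, 1mM EDTA, 1mM DTT, pH 7.5) received compound, then a probe mix of 5 nM fluorescein-DNA and 100nM Texas-615-DNA. Fluorescence polarization was read for both dyes.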
# RXFP1 antag – antagonists of human relaxin receptor RXFP1; Q9HBX9; HEK293-RXFP1, relaxin-stimulated cAMP HTRF, 30 min; stronger effect = lower value; activity change, negative = inhibition, % at 57.5 µM; 350,000 compounds, 0.59% hits;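 active = activity change of -60% or lower, but not beyond a set lower limit; inconclusive = change between -60% and -40%, or beyond the set limit; inactive = change above -40%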; also: % is scaled to controls: 0 for no effect and ±100 for the full control effect
# Mito fusion yeast – blocks mitochondrial division or promotes mitochondrial fusion | S. cerevisiae fusion-defective mutant growth rescue, CellTiterGlo 48 h | Potency, µM (doses to about 46.1 µM), for inactives: top-dose growth rescue (activation), actives largely listed as activators | AID 485298 | 320,000 compounds, 0.23% hits; also: potency is read from the fitted curve at half-maximal effect; % of control where 0% means no effect; nearly all actives have a fitted effect of over 45% in size
#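 Compounds are tested for their ability to restore growth of mitochondrial fusion-defective yeast strains at non-permissive 37C in YPEG medium over 48 hours. Viability is quantified by luciferase luminescence.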
# An asterisk follows results filed as active; i = inactive; ? = inconclusive; . = no result given; ! = not active in a repeat. In the library only some 0.72% were active in any assay of this set; here they are far more common. Unless noted, calls follow the shape of the dose curve; as a rule, active = well fitted curve in the direction sought with a large enough effect; inconclusive = small, poorly fitted or top-dose-only effect, or another doubt; inactive = no such curve, though single readings can be large; an effect the other way counts as inactive or inconclusive.
# Values run as follows: RXFP1 agonist | S-ASM inh | miR-21 reporter | ERG-DNA inh | RXFP1 antag | Mito fusion yeast
> C=C1CCC2C(C)(C)[C@@H](O)CC[C@@]2(C)[C@@H]1COc1ccc2ccc(=O)oc2c1 (stereo partly specified)
    6.0% | -9.7% | -3.4% | 7.2% | 2.1 | -4.8%
> C=C1CCC2C(C)(C)[C@H](O)CC[C@@]2(C)[C@@H]1COc1cc(=O)oc2ccccc12 (stereo partly specified)
    4.0% | ? | 12.4% | 3.1% | . | 14.1µM*
> CCOc1cc(-c2ccc(OC(=O)c3ccccc3Cl)c(OC)c2)cc(=O)c2c(C)oc(C)c12
    -0.7% | . | -0.8% | 1.7% | -73.0* | .
> CCOc1cc(-c2ccc(OC(=O)c3ccc(OC)cc3)c(OC)c2)cc(=O)c2c(C)oc(C)c12
    0.2% | . | -8.0% | -2.2% | -17.2 | .
> CC(C)c1ccc2c(c1)C(N1CCNCC1)Cc1ccc(F)cc1S2 (stereo unspecified)
    . | -5.6% | . | 7.2% | -71.7* | .
> CCC1CN(C(=O)N2CCC(C(=O)N(C)Cc3ccccc3)CC2)c2ccccc2O1 (stereo unspecified)
    -0.6% | . | -32.9% | -6.2% | -4.0 | .
> CCCCCCCCC/C(=N\O)c1ccccn1
    -0.6% | -13.2% | -19.1% | 3.2% | -69.3* | -16.5%
> Cc1ccc(S(=O)(=O)N2[C@@H](c3ccc(F)cc3)C(C(=O)O)=CC[C@H]2c2cccs2)cc1
    0.1% | 4.2% | . | -2.9% | . | -4.0%
> O=C(O)CCNc1cc(N2CCN(C(=O)c3ccco3)CC2)c2noc3c2c1C(=O)c1ccccc1-3
    1.9% | -6.2% | 17.2% | 7.5% | -74.7* | -18.5%
> Cc1cccc(N2CCN(C(=O)C3CCCN(S(=O)(=O)c4ccc5c(c4)oc(=O)n5C)C3)CC2)c1C (stereo unspecified)
    0.7% | . | 15.4% | -0.7% | . | .

# Values run as follows: RXFP1 agonist | S-ASM inh | miR-21 reporter | ERG-DNA inh | RXFP1 antag | Mito fusion yeast
> Cc1ccc(C2c3c(-c4cc(C)ccc4O)n[nH]c3C(=O)N2Cc2ccco2)cc1 (stereo unspecified)
    0.6% | . | 22.7% | 9.4% | -37.1 | .
> Cc1cc(C)c(O)c(-c2n[nH]c3c2C(c2cccc(O)c2)N(Cc2ccco2)C3=O)c1 (stereo unspecified)
    -1.8% | ? | 17.8% | -4.0% | -80.5* | 4.7%
> CC(=O)c1cc(-c2ccccc2)n(CCC(=O)NCCc2ccccc2)c1C
    3.8% | . | 2.0% | 1.8% | -29.7 | .
> O[C@@H](COc1cccc2ncccc12)CN1CCN(C2c3ccccc3[C@@H]3[C@H](c4ccccc42)C3(F)F)CC1 (stereo partly specified)
    . | . | . | . | -32.7 | .
> FC(F)(F)c1cccc(Nc2nc3nonc3nc2Nc2ccc(Cl)cc2)c1
    2.0% | . | ? | 4.5% | -82.2* | .
> CN(CCOc1ccc(Cl)cc1)C(=O)c1cc(-c2ccco2)nc2ccccc12
    2.6% | . | . | 0.7% | -69.6* | ?
> CCn1c(/C=C/c2cc[n+](C)cc2)nc2ccccc21
    28.2µM* | 406.1% | -0.6% | 8.9% | 27.4 | -0.1%
> CCn1c(/C=N/c2nc3ccccc3n2C)nc2ccccc21
    0.4% | -1.4% | -11.8% | . | 12.3 | -15.9%
> CCCn1c(/C=C/c2ccccc2)nc2ccccc21
    10.7% | 177.5% | -26.1% | 5.0% | -86.1*! | -11.0%
> CC(=O)N[C@@H](CO)C(=O)N[C@@H](CC(=O)O)C(=O)N[C@@H](CCCCN)C(=O)N1CCC[C@H]1C(=O)O
    . | . | . | . | -9.8 | .

# Shown tab-delimited: 4 of the compounds above
SMILES	RXFP1 agonist	S-ASM inh	miR-21 reporter	ERG-DNA inh	RXFP1 antag	Mito fusion yeast
CCn1c(/C=C/c2cc[n+](C)cc2)nc2ccccc21	28.2µM*	406.1%	-0.6%	8.9%	27.4	-0.1%
FC(F)(F)c1cccc(Nc2nc3nonc3nc2Nc2ccc(Cl)cc2)c1	2.0%	.	?	4.5%	-82.2*	.
CCCn1c(/C=C/c2ccccc2)nc2ccccc21	10.7%	177.5%	-26.1%	5.0%	-86.1*!	-11.0%
CC(=O)N[C@@H](CO)C(=O)N[C@@H](CC(=O)O)C(=O)N[C@@H](CCCCN)C(=O)N1CCC[C@H]1C(=O)O	.	.	.	.	-9.8	.

# Continued:
# Values run as follows: RXFP1 agonist | S-ASM inh | miR-21 reporter | ERG-DNA inh | RXFP1 antag | Mito fusion yeast
> CCOc1cccc2cc(-c3nc4sc5c(c4c(=O)[nH]3)CCC(C)C5)c(=O)oc12 (stereo unspecified)
    -0.8% | . | -7.3% | 4.4% | 9.6 | .
> O=C(NCC(c1ccco1)N1CCc2ccccc21)C(=O)Nc1ccccc1 (stereo unspecified)
    -0.2% | -0.3% | . | -2.8% | -66.0* | -1.0%
> COC(=O)CS(=O)(=O)c1nc2ccccc2nc1N1CCCCC1
    3.6% | . | 6.6% | -8.4% | . | .
> CC(=O)Nc1ccc(NC(=O)CSc2nnc3ccc(-c4ccccn4)nn23)cc1
    3.7% | 0.9% | . | -2.6% | -106.3* | -1.1%
> CC(=O)Nc1cccc(NC(=O)CSc2nnc3ccc(-c4ccccn4)nn23)c1
    2.5% | . | . | -3.0% | -16.8 | -1.0%
> CC(=O)Nc1ccc(NC(=O)CSc2ccc3nnc(-c4ccccn4)n3n2)cc1
    8.91µM* | -2.3% | -4.5% | 2.2% | 1.8 | -1.5%
> CCc1nn(CC(=O)N2CCCCC2)c(=O)c2cc3sc(C)cc3n12
    5.2% | . | -0.6% | 1.3% | -5.7 | .
> Cc1cccc(C(=O)Nc2ccc(N3CCC(CCN4CCOCC4)CC3)c(C(=O)O)c2)c1
    -1.2% | . | 2.0% | -7.4% | -0.7 | 0.7%
> CCOc1ccccc1CNC(=O)CN1C(=O)CCn2nc(-c3cn(C)c4ccccc34)cc21
    1.8% | . | -5.7% | 2.3% | -2.9 | .
> O=C(Nc1cccc(-c2cnc3ccccc3n2)c1)C1CC(=O)N(c2ccccc2)C1 (stereo unspecified)
    0.7% | -5.0% | 7.6% | -17.5% | -73.5* | -7.1%

# Values run as follows: RXFP1 agonist | S-ASM inh | miR-21 reporter | ERG-DNA inh | RXFP1 antag | Mito fusion yeast
> O=C(Nc1ccncc1)C1CC(=O)N(c2ccccc2)C1 (stereo unspecified)
    . | 2.4% | . | -0.3% | -2.2 | .
> CC(C)(C)C(O)C(Cc1ccccc1Cl)n1cncn1 (stereo unspecified)
    1.0% | 5.2% | 0.4% | -5.3% | 3.3 | 10µM*
> CC(C)(C)C(=O)C(Cc1ccccc1Cl)n1cncn1 (stereo unspecified)
    -0.9% | 1.4% | 3.5% | -10.2% | -3.9 | 6.7%
> CN1/C(=C\C(=O)Nc2ccc(Br)cc2)C(C)(C)c2ccccc21
    2.8% | -10.5% | -2.2% | 2.7% | . | -15.0%
> CN1/C(=C\C(=O)Nc2ccc(F)cc2)C(C)(C)c2ccccc21
    -0.4% | -6.8% | 0.5% | -13.2% | 1.6 | 10µM*
> COc1ccccc1Cc1nc2ccccc2nc1SCC(=O)Nc1ccccc1C(F)(F)F
    ? | . | -0.9% | 1.0% | 3.6 | .
> COc1cc2c(cc1OC)C(C)N(C(=O)c1cc3c(s1)-c1c(C)cccc1OC3)CC2 (stereo unspecified)
    3.5% | i | -11.7% | -12.7% | . | 25.1µM*
> COc1cc2c(cc1OC)C(C)N(C(=O)c1cc3c(s1)-c1ccccc1OC3)CC2 (stereo unspecified)
    1.4% | 492.8% | -1.5% | -4.8% | -33.5 | 20µM*
> COc1cc(OC)c(N(C)C(=O)c2cc3c(s2)-c2ccccc2OC3)cc1Cl
    0.0% | . | -3.5% | -5.5% | -1.3 | .
> COc1ccc(N(C)C(=O)c2cc3c(s2)-c2ccccc2OC3)cc1
    0.1% | . | -12.9% | -9.5% | -64.2* | .
> Cc1ccc(C(=O)NCCC(=O)Nc2ccccc2C)cc1
    0.7% | 6.6% | -6.5% | 6.0% | 8.8 | -0.4%
